US6071925A (priority 1997, dated 2000)

Sequences of proteins named here, by UniProt entry; tags and fusion partners are left off. A change or cut given only in a name is not applied to a line headed by its entry.
UniProt P35370: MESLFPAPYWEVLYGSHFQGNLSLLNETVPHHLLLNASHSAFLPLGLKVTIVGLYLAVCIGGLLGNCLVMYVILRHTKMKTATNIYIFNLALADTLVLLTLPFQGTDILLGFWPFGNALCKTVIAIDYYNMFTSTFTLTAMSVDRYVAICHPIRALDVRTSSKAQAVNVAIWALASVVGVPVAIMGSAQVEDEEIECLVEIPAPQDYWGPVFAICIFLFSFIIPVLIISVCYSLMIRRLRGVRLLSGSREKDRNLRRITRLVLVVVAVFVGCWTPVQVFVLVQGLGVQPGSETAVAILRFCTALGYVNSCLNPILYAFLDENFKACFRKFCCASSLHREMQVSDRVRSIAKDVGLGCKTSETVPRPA

Target: rat OFQ receptor (Rattus norvegicus, UniProt P35370)
Assay: OFQ-R binding assay ([3H]-OFQ competition, 293s-OFQ-R membranes)
Conditions: membranes of HEK-293s cells transfected with rat OFQ receptor, Ki from IC50 by Cheng and Prusoff

## CC(=O)N1CN(c2ccccc2)C2(CCN(C3CCc4c(Cl)ccc(Cl)c4C3)CC2)C1=O (centres unmarked)
  affinity to the OFQ-receptor, given as pKi: 8.0

## Cl.O=C1N(Cc2ccccc2)CN(c2ccccc2)C12CCN(C1CCc3c(Cl)ccc(Cl)c3C1)CC2 (centres unmarked)
  affinity to the OFQ-receptor, given as pKi: 7.9
